# Yeast mating assay B: variants of the scFv Ab-14

From the AlphaSeq antibody data of Li et al. 2023 (doi:10.1038/s41467-023-39022-2), copy in the FLAb collection.

Target: peptide PDVDLGDISGINAS, taken from heptad repeat 2 (HR2) of SARS-CoV-2 spike.

Each scFv is VH, a 15-residue (Gly4Ser)3 linker, VL, as in the parent Ab-14, and differs from it in the CDRs of the heavy chain only.
VH: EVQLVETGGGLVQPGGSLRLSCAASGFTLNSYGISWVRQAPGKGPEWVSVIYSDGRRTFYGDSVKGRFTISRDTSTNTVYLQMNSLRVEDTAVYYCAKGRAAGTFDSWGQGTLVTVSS
VL: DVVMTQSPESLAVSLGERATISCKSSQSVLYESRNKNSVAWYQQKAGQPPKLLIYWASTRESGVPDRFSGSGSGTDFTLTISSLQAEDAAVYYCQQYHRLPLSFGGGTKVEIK

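The parent was found by panning a naive human phage display library on the peptide. Designed CDR sequences, proposed from the first random library and measured here. Several design methods are mixed in this list. AlphaSeq pools MATa yeast showing the antibodies with MATalpha yeast showing the peptide. Binding brings cells together so that they mate, and sequencing counts the barcode pairs among the diploids. The ratio of observed to expected reads was calibrated, replicate by replicate, on BCL2-family standards whose Kd was known from biolayer interferometry. Mating was done six times.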

Positions count from residue 1 of the parent VH; T58A puts A in place of T. Variants here have at most six changes. The read-out is the apparent dissociation constant on a log10 scale (nM): the lower, the stronger. A mean of the replicates is given; it leaves out those without a signal. An entry "nd" has no value in the source: the pair was not observed among the diploids in that replicate. This suggests poor binding but is not conclusive. A sequence that the file lists under several names has all its replicates listed entry by entry, parted by semicolons. Of ten entries with the parent sequence, four were seen in most replicates (averages 0.34 to 2.37), three in one and three in none, so single entries are noisy. Background: pairings of all heavy chain designs with three empty control strains gave a value in 1% of cases (median 2.08, 5th percentile 0.84). Values in that range, when seen in few replicates, are hard to tell from nonspecific mating. The control count says in how many pairings with the empty strains this scFv gave a signal. A sequence measured in both rounds can read differently, since the two assays cover different ranges. The authors averaged sequences with at least three values out of six and counted those with two or fewer as poor binders.

* T58A/A101S/A102H = nd, nd, nd, nd, nd, nd (controls 0 of 18)
* T28S/G61A/R100K/A101I = 0.48, 0.53, 0.56, 0.53, 0.45, 0.49 (mean 0.51; controls 1 of 18)
* G61T/S63D/R100E/D106K = 0.78, 1.20, 1.39, 1.30, 2.07, 1.81 (mean 1.43; controls 0 of 18)
* G61K/F105K = nd, nd, nd, nd, nd, nd (controls 0 of 18)
* R56K/G61S/R100Q/S107A = 0.19, 0.13, 0.26, 0.20, 0.51, 0.21 (mean 0.25; controls 1 of 18)
* T28D/S31E/S53A/F59A/G61S/R100E = 0.54, -0.66, -0.10, -0.17, -0.35, -0.58 (mean -0.22; controls 0 of 18)
* T58N/G99E = nd, nd, nd, nd, nd, nd (controls 0 of 18)
* N30E/R56K/A101T = 0.60, 1.08, 0.53, 0.40, 1.10, 0.73 (mean 0.74; controls 0 of 18)
* G26K/T28S/S31N/G61S/A101T = 0.31, -0.01, 0.91, 0.29, 0.87, 0.39 (mean 0.46; controls 1 of 18)
* T28S/G61T/A101E = 0.66, 0.20, 0.61, -0.23, 0.42, -0.02 (mean 0.28; controls 0 of 18)
* S31E/S63A = 1.14, -0.54, 0.04, 0.28, 0.00, -0.21 (mean 0.12; controls 1 of 18)
* S31E/R100L/A101M = 0.90, -0.08, 1.09, 0.11, 0.68, 0.63 (mean 0.56; controls 0 of 18)
* G61A/R100K = 0.36, -0.26, 0.41, 0.03, 0.37, 1.83 (mean 0.46; controls 0 of 18)
* G26K/T28S/A101I = nd, nd, nd, nd, nd, nd (controls 0 of 18)
* R56K/G61S/R100E/S107F = 1.74, 1.18, 1.04, 0.92, 0.71, 1.28 (mean 1.14; controls 1 of 18)
* T28E/G61A/A101E/S107T = 0.25, 0.67, -0.08, -0.16, -0.32, 0.08 (mean 0.08; controls 0 of 18)
* T28H/G61S/A101T = 0.93, 0.54, 0.40, 0.66, 0.79, 0.75 (mean 0.68; controls 0 of 18)
* T28H/G61T/R100Q/A101T = nd, 0.25, nd, 1.21, 0.23, nd (mean 0.56; controls 0 of 18)
* S31E/R56Q/G61T/S63D = 0.39, 0.92, 0.09, 0.34, 0.37, 0.73 (mean 0.47; controls 1 of 18)
* S31D/F59E/G61I = nd, 2.21, 2.34, 2.13, nd, 1.25 (mean 1.98; controls 1 of 18)
* G61S/A101T/A102G/S107T = 0.68, 0.27, 0.14, 0.78, 1.09, 0.71 (mean 0.61; controls 0 of 18)
* S31E/R100E/A102V = nd, nd, nd, nd, nd, nd (controls 0 of 18)
* T28S/G61S/T104F = nd, nd, nd, nd, nd, nd (controls 0 of 18)
* T28S/S31D/S63E/A101T = nd, nd, nd, nd, nd, nd (controls 0 of 18)
* T28D/A101V = 0.47, 0.82, 0.56, 0.34, 0.14, 0.35; 0.36, -0.18, -0.34, -0.35, -0.18, 0.04 (mean 0.17; controls 0 of 36)
* G61S/G99D = nd, nd, 1.93, nd, nd, nd (controls 0 of 18)
* S53A/R56K/R100K = -0.18, -0.42, -0.23, -0.58, 0.16, -0.43 (mean -0.28; controls 0 of 18)
* T28A/S31E/A101Q = -0.06, 0.59, -0.14, 0.20, 0.28, 0.35 (mean 0.20; controls 1 of 18)
* D62P/K65R/A101V = 0.57, 0.74, 0.31, 0.28, 0.38, 0.69 (mean 0.49; controls 0 of 18)
* N30E/S31M/A101T = nd, 1.37, nd, 0.13, nd, nd (mean 0.75; controls 0 of 18)
* S31D/Y32H/I34V = 1.34, 1.76, 2.54, 1.01, 1.14, 1.29 (mean 1.51; controls 0 of 18)
* S31Q/S35T/R56Y/A102T = nd, nd, nd, nd, nd, nd (controls 1 of 18)
* N30E/G61A/A101L = 0.49, 0.93, 0.13, -0.16, 0.75, 0.31 (mean 0.41; controls 0 of 18)
* T28N/S53A/G61H = 0.51, 0.05, -0.14, -0.27, 0.43, 0.87 (mean 0.24; controls 0 of 18)
* T28D/L29M/G61T/A102Y/D106W = nd, nd, nd, nd, nd, nd (controls 0 of 18)
* T28S/G61H/S63R/R100E/S107T = nd, nd, nd, nd, nd, nd (controls 0 of 18)
* T28V/S31D/G61K = nd, nd, nd, nd, nd, 2.57 (controls 1 of 18)
* T28W/S31E/G61D/A101F = 0.96, 1.10, 1.17, 1.00, 1.48, 1.27 (mean 1.16; controls 0 of 18)
* F27L/S31D/I34T/R56Y/G61Q = 1.22, 0.53, 0.54, 1.90, 0.69, 3.26 (mean 1.36; controls 0 of 18)

The first 4 variants above that were never detected:

changes,"replicates, log10 nM","log10 Kd (nM), mean",signal with controls
T58A/A101S/A102H,"nd, nd, nd, nd, nd, nd",nd,0 of 18
G61K/F105K,"nd, nd, nd, nd, nd, nd",nd,0 of 18
T58N/G99E,"nd, nd, nd, nd, nd, nd",nd,0 of 18
G26K/T28S/A101I,"nd, nd, nd, nd, nd, nd",nd,0 of 18